Measurements: PubChem BioAssay AID493091 (Sanford-Burnham Center for Chemical Genomics, 2011)
The entries are a selection whose mix differs from that of the whole data set. Activity calls are given as the source filed them.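 Rule for the calls: active = inhibition above about 50% at 20 µM (limit read from the data); inactive = the rest.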

Chains of the proteins cited; added tags and fusions are not shown. Residues count along the entry.
UniProt Q9GZU7, 76-261 limits assumed: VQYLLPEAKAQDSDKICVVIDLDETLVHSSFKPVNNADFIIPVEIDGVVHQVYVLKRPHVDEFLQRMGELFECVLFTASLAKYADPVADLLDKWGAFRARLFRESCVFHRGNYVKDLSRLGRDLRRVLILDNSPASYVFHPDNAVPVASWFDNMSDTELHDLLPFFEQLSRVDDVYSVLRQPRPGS

These molecules were tested against Carboxy-terminal domain RNA polymerase II polypeptide A small phosphatase 1 (Homo sapiens) (UniProt Q9GZU7) (assay: Scp-1 phosphatase inhibitors, primary screen, biochemical, colorimetric, uHTS (AID 493091;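 note: plate controls were DMSO wells with enzyme for no effect and wells lacking enzyme for full effect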)). Conditions: Recombinant Scp1, phosphopeptide, malachite green phosphate absorbance; at 20 µM; hits give high values.

Row | SMILES | inhibition
1 | O=C1C(O)=C([N+](=O)[O-])C(=O)C(O)=C1[N+](=O)[O-] | active: 55.9%
2 | Cc1cc(C)cc(OP(C)(=O)Nc2cccc(C(F)(F)F)c2)c1 (stereo unspecified) | inactive: 3.43%
3 | COc1ccc(OP(C)(=O)Nc2ccccc2Br)cc1 (stereo unspecified) | inactive: -5.22%
4 | COc1ccccc1OP(C)(=O)Nc1ccc(C)c(C)c1 (stereo unspecified) | inactive: -6%
5 | CCOC(=O)c1ccc(NP(C)(=O)Oc2ccccc2)cc1 (stereo unspecified) | inactive: 2.73%
6 | COc1ccccc1OP(C)(=O)Nc1ccc(C)cc1 (stereo unspecified) | inactive: 9.84%
7 | Cc1ccc(NP(C)(=O)Oc2ccccc2)c(C)c1 (stereo unspecified) | inactive: 3.26%
8 | COc1ccccc1OP(C)(=O)Nc1cc(Cl)ccc1C (stereo unspecified) | inactive: 1.45%
9 | COc1ccc(OP(C)(=O)Nc2cccc(F)c2)cc1 (stereo unspecified) | inactive: -6.73%
10 | Cc1cc(C)cc(OP(C)(N)=O)c1 (stereo unspecified) | inactive: 3.65%
11 | O=[N+]([O-])c1cc([N+](=O)[O-])c(Nc2cccnc2)c([N+](=O)[O-])c1 | inactive: -6.15%
12 | CC(C)(C)c1ccc(OP(C)(=O)Nc2ccc(SC(F)(F)F)cc2)cc1 (stereo unspecified) | inactive: -7.87%
13 | Cc1cccc(C)c1OP(C)(N)=O (stereo unspecified) | inactive: -0.73%
14 | O=[N+]([O-])c1ccc2c(c1)C=Nc1ccccc1O2 | inactive: 2.1%
15 | CCN(CC)CCCOC(=O)C(O)(c1ccccc1)c1ccccc1 | inactive: -6.09%
16 | CCOP(C)(=S)SCC(=O)NC(C)C(=O)O (stereo unspecified) | inactive: -9.63%
17 | O=[N+]([O-])c1cc([N+](=O)[O-])c(O)c([N+](=O)[O-])c1.c1ccc(Oc2ccncc2)cc1 | inactive: 0.11%
18 | CCOC(=O)c1ccc(NP(C)(=O)Oc2ccc(OC)cc2)cc1 (stereo unspecified) | inactive: -1.66%
19 | CP(=O)(Nc1ccccn1)Oc1ccc(Cl)cc1 (stereo unspecified) | inactive: -3.82%
20 | CP(=O)(Nc1ccc(SC(F)(F)F)cc1)Oc1ccc(Cl)cc1 (stereo unspecified) | inactive: -3.06%
21 | Cc1cccc(C)c1OP(C)(=O)Nc1ccc(SC(F)(F)F)cc1 (stereo unspecified) | inactive: -8.67%
22 | CP(=O)(Oc1ccccc1)OC(c1ccccc1)C(F)(F)F (stereo unspecified) | inactive: -3.99%
23 | CP(=O)(NC(=O)Nc1ccccc1)Oc1ccccc1 (stereo unspecified) | inactive: 9.82%

Row | SMILES | inhibition
24 | CCc1ccc(OP(C)(=O)N2CCN(c3ccc([N+](=O)[O-])cc3)CC2)cc1 (stereo unspecified) | inactive: -26.6%
25 | Cc1cc(C)cc(OP(C)(=O)Nc2ccc(SC(F)(F)F)cc2)c1 (stereo unspecified) | inactive: -2.15%
26 | CP(=S)(Nn1cnnc1)Oc1ccccc1 (stereo unspecified) | inactive: 0.32%
27 | COc1ccccc1OP(C)(=O)Nc1ccccc1 (stereo unspecified) | inactive: -5.95%
28 | CP(=O)(Nc1ccccc1Br)Oc1ccccc1 (stereo unspecified) | inactive: -10.5%
29 | CN1CCCCC1COC(=O)C1(O)c2ccccc2CCc2ccccc21 (stereo unspecified) | inactive: -0.16%
30 | COc1ccccc1OP(C)(=O)Nc1c(C)cccc1C (stereo unspecified) | inactive: -10.8%
31 | CCCOc1ccc(NP(C)(=O)Oc2ccc(Cl)cc2)cc1 (stereo unspecified) | inactive: -6.46%
32 | CP(=O)(Nc1ccc(SC(F)(F)F)cc1)Oc1ccccc1 (stereo unspecified) | inactive: -3.66%
33 | CC1=C2N=C(C=C3N=C(C(C)=C4[N-][C@@](C)([C@@H]5N=C1[C@](C)(CCC(=O)NC[C@@H](C)OP(=O)([O-])O[C@H]1[C@@H](O)[C@@H](n6cnc7cc(C)c(C)cc76)O[C@@H]1CO)[C@H]5CC(N)=O)[C@@](C)(CC(N)=O)[C@@H]4CCC(N)=O)[C@@](C)(CC(N)=O)[C@@H]3CCC(N)=O)C(C)(C)[C@@H]2CCC(N)=O.[C-]#N.[Co+3] | inactive: 2.07%
34 | O=[N+]([O-])c1cc([N+](=O)[O-])c(Nc2nnnn2CCO)c([N+](=O)[O-])c1 | inactive: -1.26%
35 | CCOC(=O)C(CC)C1=NC(C)(C)Cc2ccccc21.O=[N+]([O-])c1cc([N+](=O)[O-])c(O)c([N+](=O)[O-])c1 (stereo unspecified) | inactive: -7.37%
36 | O=[N+]([O-])c1cc([N+](=O)[O-])c(-c2cnn(-c3ccccc3)c2)c([N+](=O)[O-])c1 | inactive: -7.16%
37 | Cc1nc2ccc3ccccc3c2s1.O=[N+]([O-])c1cc([N+](=O)[O-])c(O)c([N+](=O)[O-])c1 | inactive: -6.14%
38 | O=[N+]([O-])c1cc([N+](=O)[O-])c(-n2nnc3ccccc32)c([N+](=O)[O-])c1 | inactive: 9.46%
39 | Cc1cc(C)cc(OP(C)(=O)Nc2ccccn2)c1 (stereo unspecified) | inactive: -9.38%
40 | CP(=O)(Nc1cccc(Br)c1)Oc1ccccc1 (stereo unspecified) | inactive: -3.46%
41 | Cc1ccc(C)c(NP(C)(=O)Oc2ccccc2)c1 (stereo unspecified) | inactive: 9.09%
42 | COc1ccccc1OP(C)(=O)Nc1cccc(Br)c1 (stereo unspecified) | inactive: -9.01%
43 | Cc1cc(C)cc(OP(C)(=O)Nc2ccc(C)cc2C)c1 (stereo unspecified) | inactive: -5.56%
44 | CCOC(=O)c1ccc(NP(C)(=O)Oc2cc(C)cc(C)c2)cc1 (stereo unspecified) | inactive: -12.6%
45 | CC1=NCCc2c1[nH]c1ccccc21.O=[N+]([O-])c1cc([N+](=O)[O-])c(O)c([N+](=O)[O-])c1 | inactive: -8.21%
46 | O=C(O)c1cccc(Nc2c([N+](=O)[O-])cc([N+](=O)[O-])cc2[N+](=O)[O-])c1 | inactive: -5.56%
